## Apparent affinities of Ab-91 variants for a coronavirus HR2 peptide

Reference: Engelhart et al. 2022, doi:10.1038/s41597-022-01779-4. File: FLAb, binding data.

Binding partner: SARS-CoV-2 spike HR2 peptide, sequence PDVDLGDISGINAS.

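The parent was found by panning a naive human phage display library on the peptide. In library AAYL51, one, two or three CDR residues were substituted; doubles and triples were drawn at random. AlphaSeq pools MATa yeast showing the antibodies with MATalpha yeast showing the peptide. Binding brings cells together so that they mate, and sequencing counts the barcode pairs among the diploids. The ratio of observed to expected reads was calibrated, replicate by replicate, on BCL2-family standards whose Kd was known from biolayer interferometry. There are three technical replicates.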

Each scFv is VL, the linker GGGGSGGGGSGGGGS, VH, as in the parent Ab-91, and differs from it in the CDRs of the heavy chain only.
VL: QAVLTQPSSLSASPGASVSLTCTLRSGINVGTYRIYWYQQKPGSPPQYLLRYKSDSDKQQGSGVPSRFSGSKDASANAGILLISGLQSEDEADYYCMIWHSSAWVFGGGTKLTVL
VH: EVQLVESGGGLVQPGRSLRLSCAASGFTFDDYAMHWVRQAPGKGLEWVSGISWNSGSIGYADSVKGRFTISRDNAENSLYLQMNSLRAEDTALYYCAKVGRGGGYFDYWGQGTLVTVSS

The parent's heavy chain CDRs are GFTFDDYAMH, GISWNSGSIGYADSVK, VGRGGGYFDY; each variant's own CDRs replace them letter for letter.
The read-out is the apparent dissociation constant on a log10 scale (nM): the lower, the stronger.
A mean of the replicates is given; it leaves out those without a signal.
Where no diploid with the target was found in that replicate, the entry reads "nd": below detection, most likely a poor binder, though not proof of it.
Background: pairings of library AAYL51 with three empty control strains gave a value in 21% of cases (median 4.54, 5th percentile 3.26). Values in that range, when seen in few replicates, are hard to tell from nonspecific mating. For each scFv, signals with the empty controls are counted beside the result, with their mean in brackets.
Parent in this assay: reference entry 1.86, copy in this library 0.88.

CDR-H1	CDR-H2	CDR-H3	replicates, log10 nM	log10 Kd (nM), mean	control signals
GFTFDDYAMY	GISDNSRSIGYADSVK	VGRGGGYFDY	5.82 / 5.40 / 5.25	5.49	7 of 9 (5.23)
YFTFDDYAMH	GISWNDGSIGYAPSVK	VGRGGGYFDY	3.63 / 3.40 / nd	3.52	2 of 9 (3.72)
GFTVDDYAMH	GISWNSGSIGYEPSVK	VGRGGGYFDY	nd / nd / nd	nd	1 of 9 (2.92)
CFTFDDYAIH	GISWNSGSIGYADSVK	VGRGGGYFDY	nd / nd / nd	nd	1 of 9 (3.13)
GFCFDDYAMH	GISWNSGSIGYADSVK	WGRGGGYLDY	2.12 / 1.96 / 2.44	2.17	1 of 9 (2.76)
GFPFDDYAMH	GISWNSGSIGYWDSVK	VGRHGGYFDY	3.98 / 4.93 / nd	4.46	5 of 9 (5.61)
GFTFMDYAMR	GISWNSGSLGYADSVK	VGRGGGYFDY	nd / nd / 3.44	3.44	1 of 9 (4.75)
GFTFDMYAMH	GNSWNSRSIGYADSVK	VGRGGGYFDY	5.34 / 5.58 / 5.46	5.46	3 of 9 (4.35)
GFTFDDYAMH	GISWNLGRIGYADVVK	VGRGGGYFDY	nd / nd / nd	nd	0 of 9
GFTFDDYAMH	GISWGSGSIGFADSVK	VGRGGGYFTY	4.75 / 5.37 / 5.91	5.34	6 of 9 (5.39)
GFTFHDYMMH	GISWNSGSIGYADSVK	VGRGGGEFDY	5.57 / nd / nd	5.57	3 of 9 (5.19)
GFTMDDYAMH	GISWNQKSIGYADSVK	VGRGGGYFDY	nd / 4.12 / nd	4.12	1 of 9 (4.42)
GFTFDDYAMH	GISWYSGSIGYADSVK	VGRGGSYADY	5.69 / nd / nd	5.69	1 of 9 (3.88)
GFQFDDYAMH	YISWNSGSIGYAKSVK	VGRGGGYFDY	nd / 5.84 / nd	5.84	4 of 9 (3.70)
GFHFDDYAMH	GISWNSGSIGYADSVN	VGRGGGYIDY	nd / nd / nd	nd	0 of 9
GFTFDDYAMH	GISWSSGSIGYNDSVK	VGRGGGYFDY	3.88 / nd / 3.17	3.53	1 of 9 (4.45)
GFTFDDYAMH	GASWNSGSIGYADSVK	VGRGQKYFDY	nd / nd / nd	nd	0 of 9
GFRFDDYAMH	GISWNSGSNGYADSVK	VGRGIGYFDY	nd / nd / nd	nd	0 of 9
GFTFDDYAMH	GIVWNSGSIGYADSVK	VGRKGMYFDY	nd / nd / 4.73	4.73	2 of 9 (4.22)
GFTFDDYAMH	GISWWSGSIHYADSVK	VGRGGGEFDY	4.50 / 6.10 / nd	5.30	2 of 9 (4.25)
GFTFDDYNMH	GISWNSGSIGAADSVK	VGRGGGYRDY	nd / nd / nd	nd	2 of 9 (3.80)
GFTFQDYAMH	GISWNSGSIGYANSVK	VGRGGGYFDY	2.07 / 1.68 / 1.39	1.71	1 of 9 (3.84)
GFTFRDYAMC	GISWNSGSIGYADSVK	VGRGGGYFFY	nd / nd / 4.76	4.76	3 of 9 (4.29)
GFTFDDYAPH	TISWNSGSIGYADSVK	VGRGGGYFRY	4.09 / nd / nd	4.09	2 of 9 (4.41)
GLTFDDYAMH	GISWWIGSIGYADSVK	VGRGGGYFDY	nd / nd / nd	nd	3 of 9 (4.16)
GFTFDDYLMH	GISWNSGSVGYADSVK	VGWGGGYFDY	nd / nd / nd	nd	1 of 9 (3.88)
GFYFDDYAMH	GPSWNSGSIGYADSVK	VGVGGGYFDY	nd / nd / nd	nd	2 of 9 (3.41)
GFTIGDYAMH	GISWNSGSIGYADSVK	VGRGGGYFDA	nd / nd / nd	nd	0 of 9
GFTFDDYAMH	GISNNSGSIEYADSVK	VGRGGGYFDT	4.37 / nd / 5.04	4.71	3 of 9 (4.93)
GFTFDDYAMH	GISWNSGSLGYCDSVK	VGRGGGEFDY	nd / nd / nd	nd	0 of 9
GFTFDDYAMT	GISWNSGSIGYADSWK	VGRGDGYFDY	nd / nd / nd	nd	0 of 9
GFTFDDYAMH	GIKANSGSIGYADSVK	VGRGGGYFHY	nd / nd / nd	nd	0 of 9
GFTFDDYAMH	GMSWNSGSIGYADSVK	VGRGGGGFDY	4.38 / 5.09 / 5.21	4.90	5 of 9 (4.86)
GATFDDYAMH	GISWNSGSIGYADSVA	VTRGGGYFDY	6.20 / 4.54 / 5.21	5.32	4 of 9 (4.25)
GFTFDDYAMH	IISWNSGSSGYADSVK	VGRGGGYFDH	nd / nd / nd	nd	2 of 9 (5.25)
GFTFDDYAMH	GIWWNSGSIGYADFVG	VGRGGGYFDY	3.44 / nd / nd	3.44	1 of 9 (4.17)
MFTFDHYAMH	GISWNSGSIGYADSVK	VGRGGTYFDY	nd / 4.26 / 4.59	4.43	3 of 9 (4.48)
GFTFDDYAMF	GISRNSGSIGYADSVK	VIRGGGYFDY	nd / 4.88 / nd	4.88	4 of 9 (3.97)
GFTFDDYAMH	MISVNSGSIIYADSVK	VGRGGGYFDY	nd / nd / nd	nd	1 of 9 (3.75)
GFTFDIYAMH	GISWNSGSIQYADSVT	VGRGGGYFDY	nd / nd / nd	nd	1 of 9 (5.84)
CFLFDDYAMH	GISWNSGSIGYADSVK	VNRGGGYFDY	3.84 / nd / nd	3.84	2 of 9 (4.18)
GFTFDDYAMH	GISWNSGGIGYADSVL	VRRGGGYFDY	5.44 / 4.38 / nd	4.91	3 of 9 (4.63)
VFTFDDYAMH	GISWNSGSIGYADSVK	VGRGGYYFDY	nd / nd / nd	nd	3 of 9 (4.50)
GFIFDDYAMH	GISWNSGSIGYADSVK	QGRGGGMFDY	4.29 / 4.30 / 4.14	4.24	5 of 9 (4.22)
GFIFDDYAMH	GISWNMGSIGYADSVP	VGRGGGYFDY	3.56 / nd / nd	3.56	2 of 9 (4.70)
GFTFDDYAMH	GISGNSGSIGYADSVK	VGRHLGYFDY	1.26 / 1.48 / 0.94	1.22	2 of 9 (4.97)
GFTMDDTAMH	GISWNSGSIGYADSVK	VGRGVGYFDY	3.69 / 6.13 / 4.27	4.70	2 of 9 (4.76)
GFTFDDYAMH	GISWNSGSIGYADSVK	VGRGGEYFDW	2.39 / 2.29 / 2.31	2.33	5 of 9 (4.80)

Again, the first 4 entries without any signal:

CDR-H1	CDR-H2	CDR-H3	replicates, log10 nM	log10 Kd (nM), mean	control signals
GFTVDDYAMH	GISWNSGSIGYEPSVK	VGRGGGYFDY	nd / nd / nd	nd	1 of 9 (2.92)
CFTFDDYAIH	GISWNSGSIGYADSVK	VGRGGGYFDY	nd / nd / nd	nd	1 of 9 (3.13)
GFTFDDYAMH	GISWNLGRIGYADVVK	VGRGGGYFDY	nd / nd / nd	nd	0 of 9
GFHFDDYAMH	GISWNSGSIGYADSVN	VGRGGGYIDY	nd / nd / nd	nd	0 of 9